## Apparent affinities of Ab-95 variants for a coronavirus HR2 peptide

The target is the same throughout: PDVDLGDISGINAS, from the HR2 region of SARS-CoV-2 spike.

Parent: Ab-95, a human scFv built as VH, the linker GGGGSGGGGSGGGGS, VL. Only the CDRs of the light chain vary.
VH: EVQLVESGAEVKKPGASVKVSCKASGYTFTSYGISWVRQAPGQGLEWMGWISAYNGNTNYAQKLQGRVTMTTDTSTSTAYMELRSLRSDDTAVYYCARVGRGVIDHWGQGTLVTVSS
VL: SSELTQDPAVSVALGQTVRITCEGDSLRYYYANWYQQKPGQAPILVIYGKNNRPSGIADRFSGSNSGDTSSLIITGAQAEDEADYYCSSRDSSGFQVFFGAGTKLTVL

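The starting antibody came from a phage panning campaign against this peptide. Variants in AAYL52 differ from the parent at up to three CDR positions; double and triple changes were sampled at random. Affinity was read by AlphaSeq, a pooled yeast mating assay with surface-displayed partners. Pairs that bind mate more often; barcode pairs of the diploids are counted by sequencing. A regression on co-assayed BCL2-family reference pairs converts the normalised counts of each replicate to an apparent Kd. The assay was run in three technical replicates.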

Substitutions are numbered in sequence along the VL above, starting at 1 (not Kabat).
Every variant below is changed at G49 of the VL (sequential numbering).
Kd is apparent (estimated from mating counts) and averaged on the log scale over replicates with a signal. Smaller is tighter.
An entry "not detected" has no value in the source: the pair was not observed among the diploids in any replicate. This suggests poor binding but is not conclusive.
Order: sorted from the lowest average up, undetected variants last.
Nonspecific signal, from three strains lacking the peptide, appeared in 28% of pairings of library AAYL52, centred on 8.2 µM (5% of these signals below 800 nM); values are not corrected for it.

changes	Kd	detected
E23H/Y30E/G49N	19 nM	3/3
Y31A/G49W	510 nM	2/3
Y30W/G49L/F95P	1.1 µM	1/3
R28N/G49C/P54D	1.2 µM	1/3
G49M/N52Q/S55I	1.4 µM	1/3
G49D/N51C/S93P	4.0 µM	1/3
N33Q/G49A/D91R	5.7 µM	1/3
G49V/S93T/F95P	5.8 µM	1/3
G24V/Y30T/G49R	6.8 µM	1/3
N33H/G49P/K50H	12 µM	2/3
Y29C/G49R/S89M	16 µM	2/3
Y29F/G49H/P54F	22 µM	1/3
G49A/N51L	24 µM	1/3
N33M/G49L/P54Y	27 µM	3/3
G49K/S55H/S92L	28 µM	1/3
L27E/G49W/K50E	52 µM	1/3
G49T/S92P/Q96G	97 µM	3/3
G49C/P54E/S93Y	100 µM	2/3
E23S/A32Y/G49R	not detected	0/3
S26T/Y30L/G49W	not detected	0/3
G49Y/S93R/F95P	not detected	0/3
G49I/S55E/S89L	not detected	0/3

Repeated from above, the 2 best binders with a signal in all replicates:

changes	Kd	detected
E23H/Y30E/G49N	19 nM	3/3
N33M/G49L/P54Y	27 µM	3/3

From the AlphaSeq antibody data of Engelhart et al. 2022 (doi:10.1038/s41597-022-01779-4), copy in the FLAb collection.